Experimental data reported in patent publication US7951538B2, “Method to determine the risk for side effects of an SSRI treatment in a person” (The Board of Trustees of the Leland Stanford Junior …, priority 2001, dated 2011).

Test system: patients with major depression
Assay: 8 week treatment of elderly patients with major depression, genotyped for the 5-HT2A receptor gene 102 T/C polymorphism: discontinuations, adverse events, dosing, plasma levels

**Q.** How did the “survival analyses, discontinuations due to any cause” value (3 genotype groups, Caucasian subjects) turn out when `Fc1ccc([C@@H]2CCNC[C@H]2COc2ccc3c(c2)OCO3)cc1` [paroxetine] was run?
**A.** did not show a difference

**Q.** And the “plasma levels at day 28” value (C/C patients versus T carriers, all subjects, p=0.056)?
**A.** Lower

**Q.** And the “severity of side effects due to study drug” value (C/C versus T carriers, Caucasian subjects, p=0.051)?
**A.** Greater severity
